Measurements: patent US5889029A, “Use of cotinine in treating psychiatric disorders” (priority 1997, dated 1999)

Chains of the proteins cited; added tags and fusions are not shown.
UniProt P33533, whole entry: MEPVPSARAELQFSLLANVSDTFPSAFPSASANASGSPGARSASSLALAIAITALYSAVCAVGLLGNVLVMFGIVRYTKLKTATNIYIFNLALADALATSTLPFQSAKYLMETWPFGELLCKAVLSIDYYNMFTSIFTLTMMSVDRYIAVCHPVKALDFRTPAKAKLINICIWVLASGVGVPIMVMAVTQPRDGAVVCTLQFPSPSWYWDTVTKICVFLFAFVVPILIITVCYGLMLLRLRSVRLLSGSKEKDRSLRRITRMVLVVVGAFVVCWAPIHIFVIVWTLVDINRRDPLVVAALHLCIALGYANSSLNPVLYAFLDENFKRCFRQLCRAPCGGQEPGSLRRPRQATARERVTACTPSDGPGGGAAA

Target: T1, Opiate (Delta) (Rattus norvegicus, UniProt P33533)
T1 construct: Rat forebrain membranes; from tissue; host or cells: rat forebrain membranes
Assay: Opiate (Delta) Binding Assay
Conditions: reference compounds; Rat forebrain membranes; [3H]DPDPE

“Enkephaline [DPDPE, Enkephaline [2-D penicillamine, 5-D penicillamine]]” was tested, and the pKi was 8.80.

pKi: −log10 of the molar value.
